B1: NEG024-MCC-DM1 (antibody, human IgG1, kappa, V domains shown)
VH: EVQLVESGGGLVQPGGSLRLSCAASGFTFSDYYMAWVRQAPGKGLEWVANINQIAGSTYYLDSVRGRFTISRDNAKNSLYLQMNSLRAEDTAVYYCARGDYYGTTYWYFDVWGQGTTVTVSS
VL: EIVMTQSPATLSLSPGERATLSCRASQDISNYLNWYQQKPGQAPRLLIYYTSRLQSGIPARFSGSGSGTDYTLTISSLEPEDFAVYYCQQGKKLWSFGGGTKVEIKR
modifications: DM1 linked through the MCC (SMCC) linker to primary amines of the antibody, sites not stated; DM1 linked through the MCC (SMCC) linker to primary amines of the antibody, sites not stated; average MAR 4 (Table 7)
notes: Antibody drug conjugate of NEG024
B2: 20376-MCC-DM1 (antibody, human IgG1, lambda, V domains shown)
VH: QVQLVQSGAEVKKPGSSVKVSCKASGGTFSSYAISWVRQAPGQGLEWMGGIIPMSGRTTYAQKFQGRVTITADESTSTAYMELSSLRSEDTAVYYCARDYGPEAPDYGQSTSYFWYYAFDPWGQGTLVTVSS
VL: DIELTQPPSVSVSPGQTASITCSGDNIPSYFVHWYQQKPGQAPVLVIYDDNDRPSGIPERFSGSNSGNTATLTISGTQAEDEADYYCSSWDQDTVVFGGGTKLTVLG
modifications: DM1 linked through the MCC (SMCC) linker to primary amines of the antibody, sites not stated; DM1 linked through the MCC (SMCC) linker to primary amines of the antibody, sites not stated; average MAR 3.8 (Table 7)

The chains behind the UniProt entries cited, without tags or fusion partners. Where a name states a change or a piece, a line headed by the entry shows the natural chain unless it says otherwise.
UniProt P10721: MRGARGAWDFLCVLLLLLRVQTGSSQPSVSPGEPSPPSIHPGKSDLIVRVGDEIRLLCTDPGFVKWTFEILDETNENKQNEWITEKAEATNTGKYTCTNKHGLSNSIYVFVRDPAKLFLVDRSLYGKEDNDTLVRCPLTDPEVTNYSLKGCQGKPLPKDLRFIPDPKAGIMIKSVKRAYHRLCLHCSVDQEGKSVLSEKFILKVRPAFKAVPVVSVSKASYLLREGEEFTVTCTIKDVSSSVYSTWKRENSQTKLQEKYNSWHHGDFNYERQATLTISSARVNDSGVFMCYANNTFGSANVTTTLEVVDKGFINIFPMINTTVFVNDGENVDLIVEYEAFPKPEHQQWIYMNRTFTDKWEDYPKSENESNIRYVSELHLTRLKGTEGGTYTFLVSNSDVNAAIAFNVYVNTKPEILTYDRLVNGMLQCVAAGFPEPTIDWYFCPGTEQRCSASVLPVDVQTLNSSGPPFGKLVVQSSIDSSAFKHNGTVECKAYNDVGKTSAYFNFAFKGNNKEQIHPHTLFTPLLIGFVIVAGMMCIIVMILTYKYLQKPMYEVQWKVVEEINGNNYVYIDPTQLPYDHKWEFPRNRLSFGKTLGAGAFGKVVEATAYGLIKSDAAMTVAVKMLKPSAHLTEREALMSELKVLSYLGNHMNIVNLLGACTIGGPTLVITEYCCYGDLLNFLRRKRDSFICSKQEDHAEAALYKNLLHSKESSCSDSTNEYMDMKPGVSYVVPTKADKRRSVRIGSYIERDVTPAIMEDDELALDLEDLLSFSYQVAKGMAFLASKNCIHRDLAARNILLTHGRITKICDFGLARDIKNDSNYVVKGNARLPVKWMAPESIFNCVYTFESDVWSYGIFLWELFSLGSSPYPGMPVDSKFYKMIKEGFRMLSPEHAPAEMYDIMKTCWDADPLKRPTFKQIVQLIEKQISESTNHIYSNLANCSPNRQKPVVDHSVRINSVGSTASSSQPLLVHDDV

Target: T1, Human cKIT D1-5 (human cKIT tr. variant 2, residues 26-520, C-terminal His tag) (human, UniProt P10721 26-524)
T1 construct: also called human cKIT ECD; Human c-Kit ECD
Assay: SPR (Biacore T100), CM5 chip, method as in Example 7; MCC-DM1 conjugate

Kd [nM] | Binder
1.1 | B1
11.2 | B2
